In article PMC8143797 one finds quantitative RT-PCR, expression of Ccn2(Ctgf), a YAP target gene, in NIH 3T3 cells, YAP-TFE3 S94A compared to the YAP-TFE3 control (fold decrease) data, which are given here for 1 substance.

Amino acid sequences for entries named in this document (tags omitted).
UniProt P28347, whole entry: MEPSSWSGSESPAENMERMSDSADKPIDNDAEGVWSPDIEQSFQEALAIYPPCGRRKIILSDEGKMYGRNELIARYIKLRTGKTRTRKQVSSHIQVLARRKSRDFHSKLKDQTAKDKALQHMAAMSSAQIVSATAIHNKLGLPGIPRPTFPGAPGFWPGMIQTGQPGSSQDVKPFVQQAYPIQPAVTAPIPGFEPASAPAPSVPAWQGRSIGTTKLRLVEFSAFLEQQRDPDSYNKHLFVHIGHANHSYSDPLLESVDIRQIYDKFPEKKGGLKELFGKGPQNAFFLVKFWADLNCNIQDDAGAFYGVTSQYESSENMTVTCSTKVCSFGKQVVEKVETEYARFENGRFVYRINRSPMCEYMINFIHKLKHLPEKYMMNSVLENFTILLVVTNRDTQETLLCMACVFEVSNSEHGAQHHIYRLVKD

This experiment has as its target 3HA-TEAD1 (human) (UniProt P28347).

Double Flag YAP-TFE3 S94A showed a quantitative RT-PCR, expression of Ccn2(Ctgf), a YAP target gene, in NIH 3T3 cells, YAP-TFE3 S94A compared to the YAP-TFE3 control (fold decrease) of 7.
